The record followed here is US11247972B2, “Compositions and methods for treating toxoplasmosis, cryptosporidiosis, and other apicomplexan protozoan related diseases” (University of Washington through its Center for …, priority 2010, dated 2022).

This test has as its system P. falciparum. Details: species or system Plasmodium falciparum. The note with it: in vivo.

On to `CCOc1ccc2cc(-c3nn(CC4CCNCC4)c4ncnc(N)c34)ccc2c1` [Compound 29, 3-(6-ethoxynaphthalen-2-yl)-1-(piperidin-4-ylmethyl)-1H-pyrazolo[3,4-d]pyrimidin-4-amine], for which the “infection of A. stephensi midguts” value is “prevented”, the “infective sporozoites in dissected salivary glands” value is given as “complete absence” and the “prevalence of oocyst infections” value was “reduced”.
